Results published in patent US20250188060A1, “ALPHA1A-ADRENERGIC RECEPTOR AGONISTS AND METHODS OF USE” (CuraSen Therapeutics, Inc., priority 2022, published 2025).

Sequences of proteins named here, by UniProt entry; tags and fusion partners are left off.
UniProt P35348, whole entry: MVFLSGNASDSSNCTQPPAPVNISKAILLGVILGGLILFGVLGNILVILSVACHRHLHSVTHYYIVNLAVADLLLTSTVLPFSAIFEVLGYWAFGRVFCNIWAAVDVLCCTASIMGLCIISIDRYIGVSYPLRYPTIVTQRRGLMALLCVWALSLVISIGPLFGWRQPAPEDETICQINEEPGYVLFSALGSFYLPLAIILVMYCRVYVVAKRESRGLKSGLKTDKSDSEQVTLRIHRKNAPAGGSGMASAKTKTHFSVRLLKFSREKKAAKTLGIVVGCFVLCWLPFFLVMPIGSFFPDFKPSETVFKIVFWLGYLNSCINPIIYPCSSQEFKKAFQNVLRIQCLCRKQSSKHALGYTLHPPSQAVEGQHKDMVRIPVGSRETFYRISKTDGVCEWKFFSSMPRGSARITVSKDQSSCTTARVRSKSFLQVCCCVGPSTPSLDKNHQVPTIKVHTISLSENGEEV

Target: α1A-ARs (Homo sapiens, UniProt P35348)
Experiment: Calcium flux assay (Calcium 6 dye) in cells expressing an α1-AR
Conditions: mean of at least three experiments; for Average Emax (% epi): relative to full agonist epinephrine

Row | SMILES | Average pEC50 | Average Emax (% epi) | Average pEC50 (tested form: HCl) | Average Emax (% epi) (tested form: HCl)
1 | Clc1nn(CC2=NCCN2)c2c(-c3cccnc3)cccc12 | B (B = 8.00-6.01) | A (A > 61%) |  | 
2 | Clc1nn(CC2=NCCN2)c2c(-c3ccncc3)cccc12 | B (B = 8.00-6.01) | A (A > 61%) |  | 
3 | Clc1cccc2c(C3CC3)cn(CC3=NCCN3)c12 [Compound 3] | B (B = 8.00-6.01) | A (A > 61%) |  | 
4 | CCc1nn(CC2=NCCN2)c2c(Cl)cccc12 | B (B = 8.00-6.01) | B (B = 21-60%) |  | 
5 | CC(C)c1ccc(Cl)c2c1ccn2CC1=NCCN1 |  |  | B (B = 8.00-6.01) | B (B = 21-60%)
